Reference: patent US20230060715A1, “USE OF FXR AGONISTS FOR TREATING AN INFECTION BY HEPATITIS D VIRUS” (INSERM (INSTITUT NATIONAL DE LA SANTÉ ET DE LA RECHERCHE …, priority 2020, published 2023)

Key:
[1] = tested on: HDV; details: HDV patients, subcutaneous injection, often with a nucleoside analogue; cited from earlier work
[2] = tested on: HDV; assay: Secretion of HDV RNA from HBV/HDV coinfected dHepaRG cells (RT-qPCR of concentrated supernatants); details: interferon 1000 IU/mL for 10 days
[3] = tested on: HDV; assay: HDV replication in HBV-infected dHepaRG super-infected with HDV (intracellular HDV RNA, RT-qPCR); assay type: cell-based, Hepatitis D virus; details: 1000 IU/mL, 7 days treatment, superinfected dHepaRG
[4] = tested on: HDV particles; assay: Specific infectivity of secreted HDV particles on naïve Huh7.5-NTCP cells; details: 6 days post infection
[5] = tested on: HDV; assay: HDV replication in HBV/HDV coinfected dHepaRG cells (intracellular HDV RNA, RT-qPCR); assay type: cell-based, Hepatitis D virus; details: 1000 IU/mL, treated day 3 to 13 post-infection
Excerpt: FIG. 1. FXRα agonist inhibits HDV replication in HBV-HDV coinfected dHepaRG cells. […] Cells and supernatants were harvested at day 13 for intracellular HBV and HDV RNA and secreted antigens quantification. Results are the mean+/−SD of two experiments performed with three biological replicates.
The inventors first evaluated the impact of FXRα agonists on HDV replication in in vitro coinfected dHepaRG cells. […] . At day 13 post-infection, cells and supernatants were collected. The intracellular amounts of HDV and HBV RNAs were quantified as well as secreted HBe and HBs antigens.
The HepaRG cell line derived from a human cellular hepato carcinoma can differentiate and regain many phenotypic traits of hepatocytes after 4 weeks of culture under defined conditions^1. HepaRG cells were cultured, differentiated, and infected by HBV and HDV as previously described^2,3. Briefly, for differentiation, cells were maintained for 2 weeks in standard medium then for at least 2 weeks in standard medium supplemented with 1.8% DMSO The composition of standard medium was the following: William's E medium supplemented with 10% HyCLone FetalClone II serum (Thermo Fisher Scientific), penicillin/streptomycin, L-glutamine, Insulin-Transferrin-Selenium (Gibco) and 50 μM hydrocortisone hemisuccinate. […]

[6] = tested on: HDV; assay: HDV replication in HBV-infected PHH super-infected with HDV (intracellular HDV RNA, RT-qPCR); assay type: cell-based, Hepatitis D virus; details: 1000 IU/mL, 7 days treatment, superinfected PHH

Substance | response rate on treatment [1] | decrease of secreted HDV RNA [2] | decrease of total intracellular HDV RNA (compared with GW4064) [3] | intracellular HDV RNA levels with inoculum 100 versus 500 vge/cell ([4]; Huh7.5-NTCP infected with supernatants of treated dHepaRG) | decrease of intracellular HDV RNA in cells infected with supernatants of treated dHepaRG ([4]; producer cells treated with interferon 1000 IU/mL, Huh7.5-NTCP infected with 500 vge/cell) | decrease of total intracellular HDV RNA (compared with GW4064 10 μM) [5] | decrease of total intracellular HDV RNA (compared with GW4064) [6]
PEG-IFN-α2a: Pegylated-interferon-alpha-2a, a non-specific immune-stimulator | about 25% |  |  |  |  |  | 
interferon α-2a: Interferon alpha-2 (ROFERON-A) purchased from Roche |  | 50% | comparable | dose dependent increase | 70% | comparable | comparable
